Where two headings read alike, the source gives them in different places.
How the values were obtained:
human glucagon receptor = target: T1, human glucagon receptor (Homo sapiens, UniProt P47871); experiment: cAMP response (HTRF) of HEK-293 cells stably expressing human glucagon receptor; type: cell-based; conditions: Table 5, cAMP, HEK-293
T1 construct: expressed in transfected cells; host or cells: HEK-293

The chains behind the UniProt entries cited, without tags or fusion partners. Residues count along the entry.
UniProt P47871, 26-477: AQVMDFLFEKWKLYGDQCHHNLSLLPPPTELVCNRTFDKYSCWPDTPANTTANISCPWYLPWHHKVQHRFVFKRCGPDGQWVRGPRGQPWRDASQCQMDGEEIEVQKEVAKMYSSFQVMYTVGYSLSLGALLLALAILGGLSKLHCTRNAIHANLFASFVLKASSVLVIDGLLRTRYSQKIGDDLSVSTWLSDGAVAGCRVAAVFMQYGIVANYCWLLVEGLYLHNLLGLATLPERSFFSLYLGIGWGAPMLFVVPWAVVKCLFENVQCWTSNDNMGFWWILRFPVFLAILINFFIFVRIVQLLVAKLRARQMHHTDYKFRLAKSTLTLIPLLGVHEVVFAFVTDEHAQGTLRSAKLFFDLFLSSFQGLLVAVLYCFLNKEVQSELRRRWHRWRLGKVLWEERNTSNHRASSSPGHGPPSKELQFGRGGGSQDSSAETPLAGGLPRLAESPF
UniProt P43220, 24-463: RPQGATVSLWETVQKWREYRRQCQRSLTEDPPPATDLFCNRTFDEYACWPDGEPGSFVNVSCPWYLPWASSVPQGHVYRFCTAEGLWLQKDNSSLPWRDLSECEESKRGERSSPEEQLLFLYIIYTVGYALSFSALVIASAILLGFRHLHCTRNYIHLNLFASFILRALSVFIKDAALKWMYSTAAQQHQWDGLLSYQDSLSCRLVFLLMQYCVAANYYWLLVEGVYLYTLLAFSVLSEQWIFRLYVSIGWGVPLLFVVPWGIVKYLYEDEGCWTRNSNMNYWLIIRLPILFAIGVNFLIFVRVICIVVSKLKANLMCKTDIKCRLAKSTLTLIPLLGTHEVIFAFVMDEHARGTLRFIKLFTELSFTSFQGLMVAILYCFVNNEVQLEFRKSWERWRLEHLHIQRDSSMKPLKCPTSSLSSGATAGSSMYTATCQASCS

human GLP-1 receptor = target: T2, human GLP-1 receptor (Homo sapiens, UniProt P43220); experiment: cAMP response (HTRF) of HEK-293 cells stably expressing human GLP-1 receptor; type: cell-based; conditions: Table 5, cAMP, HEK-293
T2 construct: expressed in transfected cells; host or cells: HEK-293

SMILES	EC50 (human glucagon receptor; read-out: EC50 hGlucagon-R)	EC50 (human GLP-1 receptor; read-out: EC50 hGLP-1R)	EC50 (human glucagon receptor; EC50 hGlucagon-R)	EC50 (human GLP-1 receptor; EC50 hGLP-1R)
CCCCCCCCCCCCCCCC(=O)NCCCC[C@H](NC(=O)[C@H](CCC(N)=O)NC(=O)[C@H](CCCCN)NC(=O)[C@H](CO)NC(=O)[C@H](CC(C)C)NC(=O)[C@H](CC(=O)O)NC(=O)[C@H](CO)NC(=O)[C@@H](NC(=O)[C@H](Cc1ccccc1)NC(=O)[C@@H](NC(=O)CNC(=O)[C@H](CCC(N)=O)NC(=O)[C@@H](CO)NC(=O)[C@@H](N)Cc1c[nH]cn1)[C@@H](C)O)[C@@H](C)O)C(=O)N[C@@H](CC(=O)O)C(=O)N[C@@H](CO)C(=O)N[C@@H](CCCNC(=N)N)C(=O)N[C@@H](CCCNC(=N)N)C(=O)N[C@@H](C)C(=O)N[C@@H](CCC(N)=O)C(=O)N[C@@H](CC(=O)O)C(=O)N[C@@H](Cc1ccccc1)C(=O)N[C@H](C(=O)N[C@@H](CCC(=O)O)C(=O)N[C@@H](Cc1c[nH]c2ccccc12)C(=O)N[C@@H](CC(C)C)C(=O)N[C@@H](CCCCN)C(=O)N[C@@H](CC(=O)O)C(=O)NCC(=O)NCC(=O)N1CCC[C@H]1C(=O)N[C@@H](CO)C(=O)N[C@@H](CO)C(=O)NCC(=O)N[C@@H](C)C(=O)N1CCC[C@H]1C(=O)N1CCC[C@H]1C(=O)N1CCC[C@H]1C(=O)N[C@@H](CO)C(N)=O)[C@@H](C)CC [compound 81]	7.1 pM	48 pM	–	–
CCCCCCCCCCCCCCCC(=O)NCCCC[C@H](NC(=O)[C@H](CCC(N)=O)NC(=O)[C@H](CCCCN)NC(=O)[C@H](CO)NC(=O)[C@H](CC(C)C)NC(=O)[C@H](CC(=O)O)NC(=O)[C@H](CO)NC(=O)[C@@H](NC(=O)[C@H](Cc1ccccc1)NC(=O)[C@@H](NC(=O)CNC(=O)[C@H](CCC(N)=O)NC(=O)[C@@H](CO)NC(=O)[C@@H](N)Cc1c[nH]cn1)[C@@H](C)O)[C@@H](C)O)C(=O)N[C@@H](CCC(=O)O)C(=O)N[C@@H](CO)C(=O)N[C@@H](CCCNC(=N)N)C(=O)N[C@@H](CCCNC(=N)N)C(=O)N[C@@H](C)C(=O)N[C@@H](CCC(N)=O)C(=O)N[C@@H](CC(=O)O)C(=O)N[C@@H](Cc1ccccc1)C(=O)N[C@H](C(=O)N[C@@H](CCC(=O)O)C(=O)N[C@@H](Cc1c[nH]c2ccccc12)C(=O)N[C@@H](CC(C)C)C(=O)N[C@@H](CCCCN)C(=O)N[C@@H](CCC(=O)O)C(=O)NCC(=O)NCC(=O)N1CCC[C@H]1C(=O)N[C@@H](CO)C(=O)N[C@@H](CO)C(=O)NCC(=O)N[C@@H](CCCNC(=N)N)C(=O)N1CCC[C@H]1C(=O)N1CCC[C@H]1C(=O)N1CCC[C@H]1C(=O)N[C@@H](CO)C(N)=O)[C@@H](C)CC [compound 83]	41.3 pM	53.9 pM	–	–
CCCCCCCCCCCCCCCC(=O)N[C@@H](CCC(=O)NCCCC[C@H](NC(=O)[C@H](CCC(N)=O)NC(=O)[C@H](CCCCN)NC(=O)[C@H](CO)NC(=O)[C@H](CC(C)C)NC(=O)[C@H](CC(=O)O)NC(=O)[C@H](CO)NC(=O)[C@@H](NC(=O)[C@H](Cc1ccccc1)NC(=O)[C@@H](NC(=O)CNC(=O)[C@H](CCC(N)=O)NC(=O)[C@@H](CO)NC(=O)[C@@H](N)Cc1c[nH]cn1)[C@@H](C)O)[C@@H](C)O)C(=O)N[C@@H](CC(=O)O)C(=O)N[C@@H](CO)C(=O)N[C@@H](CCCNC(=N)N)C(=O)N[C@@H](CCCNC(=N)N)C(=O)N[C@@H](C)C(=O)N[C@@H](CCC(N)=O)C(=O)N[C@@H](CC(=O)O)C(=O)N[C@@H](Cc1ccccc1)C(=O)N[C@H](C(=O)N[C@@H](CCC(=O)O)C(=O)N[C@@H](Cc1c[nH]c2ccccc12)C(=O)N[C@@H](CC(C)C)C(=O)N[C@@H](CCCCN)C(=O)N[C@@H](CCCCN)C(=O)NCC(=O)NCC(=O)N1CCC[C@H]1C(=O)N[C@@H](CO)C(=O)N[C@@H](CO)C(=O)NCC(=O)N[C@@H](C)C(=O)N1CCC[C@H]1C(=O)N1CCC[C@H]1C(=O)N1CCC[C@H]1C(=O)N[C@@H](CO)C(N)=O)[C@@H](C)CC)C(=O)O [compound 84]	4.3 pM	8.1 pM	–	–
CCCCCCCCCCCCCCCC(=O)N[C@@H](CCC(=O)NCCCC[C@H](NC(=O)[C@H](CCC(N)=O)NC(=O)[C@H](CCCCN)NC(=O)[C@H](CO)NC(=O)[C@H](CC(C)C)NC(=O)[C@H](CC(=O)O)NC(=O)[C@H](CO)NC(=O)[C@@H](NC(=O)[C@H](Cc1ccccc1)NC(=O)[C@@H](NC(=O)CNC(=O)[C@H](CCC(N)=O)NC(=O)[C@@H](CO)NC(=O)[C@@H](N)Cc1c[nH]cn1)[C@@H](C)O)[C@@H](C)O)C(=O)N[C@@H](CC(=O)O)C(=O)N[C@@H](CO)C(=O)N[C@@H](CCC(N)=O)C(=O)N[C@@H](C)C(=O)N[C@@H](C)C(=O)N[C@@H](CCC(N)=O)C(=O)N[C@@H](CC(=O)O)C(=O)N[C@@H](Cc1ccccc1)C(=O)N[C@H](C(=O)N[C@@H](CCC(=O)O)C(=O)N[C@@H](Cc1c[nH]c2ccccc12)C(=O)N[C@@H](CC(C)C)C(=O)N[C@@H](CCCCN)C(=O)N[C@@H](CC(N)=O)C(=O)N[C@H](C(=O)NCC(=O)N1CCC[C@H]1C(=O)N[C@@H](CO)C(=O)N[C@@H](CO)C(=O)NCC(=O)N[C@@H](C)C(=O)N1CCC[C@H]1C(=O)N1CCC[C@H]1C(=O)N1CCC[C@H]1C(=O)N[C@@H](CO)C(N)=O)[C@@H](C)O)[C@@H](C)CC)C(=O)O [compound 86]	3.5 pM	4.9 pM	–	–
CCCCCCCCCCCCCCCC(=O)N[C@@H](CCC(=O)NCCCC[C@H](NC(=O)[C@H](CCC(N)=O)NC(=O)[C@H](CCCCN)NC(=O)[C@H](CO)NC(=O)[C@H](CC(C)C)NC(=O)[C@H](CC(=O)O)NC(=O)[C@H](CO)NC(=O)[C@@H](NC(=O)[C@H](Cc1ccccc1)NC(=O)[C@@H](NC(=O)CNC(=O)[C@H](CCC(N)=O)NC(=O)[C@@H](CO)NC(=O)[C@@H](N)Cc1c[nH]cn1)[C@@H](C)O)[C@@H](C)O)C(=O)N[C@@H](CC(=O)O)C(=O)N[C@@H](CCC(=O)O)C(=O)N[C@@H](CCCNC(=N)N)C(=O)N[C@@H](CCCNC(=N)N)C(=O)N[C@@H](C)C(=O)N[C@@H](CCCCN)C(=O)N[C@@H](CC(=O)O)C(=O)N[C@@H](Cc1ccccc1)C(=O)N[C@H](C(=O)N[C@@H](CCC(=O)O)C(=O)N[C@@H](Cc1c[nH]c2ccccc12)C(=O)N[C@@H](CC(C)C)C(=O)N[C@@H](CCCCN)C(=O)N[C@@H](CC(N)=O)C(=O)NCC(=O)NCC(=O)N1CCC[C@H]1C(=O)N[C@@H](CO)C(=O)N[C@@H](CO)C(=O)NCC(=O)N[C@@H](C)C(=O)N1CCC[C@H]1C(=O)N1CCC[C@H]1C(=O)N1CCC[C@H]1C(=O)N[C@@H](CO)C(N)=O)[C@@H](C)CC)C(=O)O [compound 87]	1.3 pM	3 pM	–	–
CC[C@H](C)[C@H](NC(=O)[C@H](Cc1ccccc1)NC(=O)[C@H](CC(=O)O)NC(=O)[C@H](CCC(N)=O)NC(=O)[C@H](C)NC(=O)[C@H](CCCNC(=N)N)NC(=O)[C@H](CCCNC(=N)N)NC(=O)[C@H](CO)NC(=O)[C@H](CC(=O)O)NC(=O)[C@H](CCCCNC(=O)CC[C@H](NC(=O)CCC(=O)Oc1c(C)c(C)c2c(c1C)CC[C@@](C)(CCC[C@H](C)CCC[C@H](C)CCCC(C)C)O2)C(=O)O)NC(=O)[C@H](CCC(N)=O)NC(=O)[C@H](CCCCN)NC(=O)[C@H](CO)NC(=O)[C@H](CC(C)C)NC(=O)[C@H](CC(=O)O)NC(=O)[C@H](CO)NC(=O)[C@@H](NC(=O)[C@H](Cc1ccccc1)NC(=O)[C@@H](NC(=O)CNC(=O)[C@H](CCC(N)=O)NC(=O)[C@@H](CO)NC(=O)[C@@H](N)Cc1c[nH]cn1)[C@@H](C)O)[C@@H](C)O)C(=O)N[C@@H](CCC(=O)O)C(=O)N[C@@H](Cc1c[nH]c2ccccc12)C(=O)N[C@@H](CC(C)C)C(=O)N[C@@H](CCCCN)C(=O)N[C@@H](CC(N)=O)C(=O)NCC(=O)NCC(=O)N1CCC[C@H]1C(=O)N[C@@H](CO)C(=O)N[C@@H](CO)C(=O)NCC(=O)N[C@@H](C)C(=O)N1CCC[C@H]1C(=O)N1CCC[C@H]1C(=O)N1CCC[C@H]1C(=O)N[C@@H](CO)C(N)=O [compound 89]	–	–	13.7 pM	35.6 pM
CCCCCCCCCCCCCC(=O)N[C@@H](CCC(=O)NCCCC[C@H](NC(=O)[C@H](CCC(N)=O)NC(=O)[C@H](CCCCN)NC(=O)[C@H](CO)NC(=O)[C@H](CC(C)C)NC(=O)[C@H](CC(=O)O)NC(=O)[C@H](CO)NC(=O)[C@@H](NC(=O)[C@H](Cc1ccccc1)NC(=O)[C@@H](NC(=O)CNC(=O)[C@H](CCC(N)=O)NC(=O)[C@@H](CO)NC(=O)[C@@H](N)Cc1c[nH]cn1)[C@@H](C)O)[C@@H](C)O)C(=O)N[C@@H](CC(=O)O)C(=O)N[C@@H](CO)C(=O)N[C@@H](CCCNC(=N)N)C(=O)N[C@@H](CCCNC(=N)N)C(=O)N[C@@H](C)C(=O)N[C@@H](CCC(N)=O)C(=O)N[C@@H](CC(=O)O)C(=O)N[C@@H](Cc1ccccc1)C(=O)N[C@H](C(=O)N[C@@H](CCC(=O)O)C(=O)N[C@@H](Cc1c[nH]c2ccccc12)C(=O)N[C@@H](CC(C)C)C(=O)N[C@@H](CCCCN)C(=O)N[C@@H](CC(N)=O)C(=O)NCC(=O)NCC(=O)N1CCC[C@H]1C(=O)N[C@@H](CO)C(=O)N[C@@H](CO)C(=O)NCC(=O)N[C@@H](C)C(=O)N1CCC[C@H]1C(=O)N1CCC[C@H]1C(=O)N1CCC[C@H]1C(=O)N[C@@H](CO)C(N)=O)[C@@H](C)CC)C(=O)O [compound 90]	3.7 pM	8.8 pM	–	–
CC[C@H](C)[C@H](NC(=O)[C@H](Cc1ccccc1)NC(=O)[C@H](CC(=O)O)NC(=O)[C@H](CCC(N)=O)NC(=O)[C@H](C)NC(=O)[C@H](CCCNC(=N)N)NC(=O)[C@H](CCCNC(=N)N)NC(=O)[C@H](CO)NC(=O)[C@H](CC(=O)O)NC(=O)[C@H](CCCCNC(=O)CC[C@H](NC(=O)CCCCCCCCCCC(=O)OCc1ccccc1)C(=O)O)NC(=O)[C@H](CCC(N)=O)NC(=O)[C@H](CCCCN)NC(=O)[C@H](CO)NC(=O)[C@H](CC(C)C)NC(=O)[C@H](CC(=O)O)NC(=O)[C@H](CO)NC(=O)[C@@H](NC(=O)[C@H](Cc1ccccc1)NC(=O)[C@@H](NC(=O)CNC(=O)[C@H](CCC(N)=O)NC(=O)[C@@H](CO)NC(=O)[C@@H](N)Cc1c[nH]cn1)[C@@H](C)O)[C@@H](C)O)C(=O)N[C@@H](CCC(=O)O)C(=O)N[C@@H](Cc1c[nH]c2ccccc12)C(=O)N[C@@H](CC(C)C)C(=O)N[C@@H](CCCCN)C(=O)N[C@@H](CC(N)=O)C(=O)NCC(=O)NCC(=O)N1CCC[C@H]1C(=O)N[C@@H](CO)C(=O)N[C@@H](CO)C(=O)NCC(=O)N[C@@H](C)C(=O)N1CCC[C@H]1C(=O)N1CCC[C@H]1C(=O)N1CCC[C@H]1C(=O)N[C@@H](CO)C(N)=O [compound 91]	8.9 pM	15.1 pM	–	–

Reference: US20140100156A1 (SANOFI, priority 2012, published 2014)
